{"source": "paper PMC2745115", "about": "(Bioorganic & medicinal chemistry letters, 2008)", "system": "μ, δ, κ opioid receptors", "experiment": "Binding selectivity μ/δ/κ from Ki values", "details": "ratio of Ki values, lowest set to 1"}
{"molecule": "Oc1ccc2c(c1)[C@@]13CCCC[C@H]1[C@@H](C2)N(CC1CCC1)CC3", "note": "[3a, butorphan]", "values": [{"measurement": "Selectivity μ/δ/κ", "result": "3/75/1"}]}
{"molecule": "CN1CC[C@]23CCCC[C@H]2[C@H]1Cc1ccc(O)cc13", "note": "[compound 1, levorphanol]", "values": [{"measurement": "Selectivity μ/δ/κ", "result": "1/20/11"}]}
